Source: BindingDB's records for 2913311

By UniProt entry, the sequences of proteins in these tests, tags left out. Residues count along the entry.
UniProt P22303, 32-614 limits assumed: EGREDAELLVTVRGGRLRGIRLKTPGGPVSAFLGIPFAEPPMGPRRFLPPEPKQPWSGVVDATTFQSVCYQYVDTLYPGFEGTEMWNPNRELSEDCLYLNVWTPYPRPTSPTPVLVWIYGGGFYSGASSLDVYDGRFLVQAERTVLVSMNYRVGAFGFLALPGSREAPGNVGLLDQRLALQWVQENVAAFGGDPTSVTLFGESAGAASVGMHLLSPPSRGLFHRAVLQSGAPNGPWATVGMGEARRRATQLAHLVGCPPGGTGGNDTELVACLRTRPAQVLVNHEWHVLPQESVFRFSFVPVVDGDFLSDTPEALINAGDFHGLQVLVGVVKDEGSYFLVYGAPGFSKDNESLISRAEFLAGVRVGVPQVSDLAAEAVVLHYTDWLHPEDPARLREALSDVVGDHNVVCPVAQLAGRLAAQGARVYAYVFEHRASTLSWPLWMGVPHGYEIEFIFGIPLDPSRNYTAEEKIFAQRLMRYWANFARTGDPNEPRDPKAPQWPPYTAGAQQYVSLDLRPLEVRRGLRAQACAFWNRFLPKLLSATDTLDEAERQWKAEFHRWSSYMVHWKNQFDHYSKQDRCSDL

Target: T1, Acetylcholinesterase (Homo sapiens, UniProt P22303)
Assay: ASSAY_NAME: ChEMBL_28163 (CHEMBL644118) DESCRIPTION: Reversible inhibition of acetylcholinesterase (AChE) by 50 % in human erythrocytes

In order of rising IC50:
1. C#CC(C)(C)OC[n+]1ccn(C)c1CN=O  24.2 µM
2. C#CC1(OC[n+]2ccn(C)c2CN=O)CCCC1  24.2 µM
3. CC#CC(C)OC[n+]1ccn(C)c1CN=O (configuration not stated)  144 µM
4. CC#CC(C)(C)OC[n+]1ccn(C)c1CN=O  175 µM
5. C#CCCCC[n+]1ccn(COC)c1CN=O  185 µM
6. C#CCCOC[n+]1ccn(C(C)(C)C)c1CN=O  339 µM

Target: T1, Acetylcholinesterase
Assay: ASSAY_NAME: ChEBML_28162 DESCRIPTION: Concentration of compound that reversibly inhibits acetylcholinesterase (AChE) by 50 %

`C#CCCCC[n+]1ccc(CN=O)cc1` was tested, and the IC50 was 305 µM.
